Results taken from US5939560A, “Inhibitors of DP-mediated processes, compositions and therapeutic methods thereof” (Ferring B.V., priority 1993, dated 1999).

Chains of the proteins cited; added tags and fusions are not shown.
UniProt P27487, whole entry: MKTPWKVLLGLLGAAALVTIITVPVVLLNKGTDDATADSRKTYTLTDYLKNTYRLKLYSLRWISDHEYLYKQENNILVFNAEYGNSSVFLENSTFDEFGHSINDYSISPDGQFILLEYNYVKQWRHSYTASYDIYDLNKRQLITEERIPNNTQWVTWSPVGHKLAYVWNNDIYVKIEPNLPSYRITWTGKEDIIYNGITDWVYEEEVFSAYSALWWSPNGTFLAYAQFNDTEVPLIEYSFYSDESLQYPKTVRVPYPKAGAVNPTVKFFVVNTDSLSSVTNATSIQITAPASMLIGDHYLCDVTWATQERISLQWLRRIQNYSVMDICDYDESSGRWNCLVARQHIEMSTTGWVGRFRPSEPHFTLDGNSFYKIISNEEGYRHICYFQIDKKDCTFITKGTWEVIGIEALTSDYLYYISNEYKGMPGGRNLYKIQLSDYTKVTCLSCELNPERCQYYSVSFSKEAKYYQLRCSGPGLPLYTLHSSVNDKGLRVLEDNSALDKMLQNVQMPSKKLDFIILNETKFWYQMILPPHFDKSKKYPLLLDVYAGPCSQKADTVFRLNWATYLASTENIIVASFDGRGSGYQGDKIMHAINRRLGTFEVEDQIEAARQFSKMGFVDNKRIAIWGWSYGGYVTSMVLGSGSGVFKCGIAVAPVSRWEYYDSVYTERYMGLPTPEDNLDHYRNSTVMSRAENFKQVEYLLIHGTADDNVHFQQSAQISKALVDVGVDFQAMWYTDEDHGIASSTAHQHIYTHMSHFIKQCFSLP

Molecular target: pure human DP-IV (Homo sapiens, UniProt P27487)
Assay: Inhibition of pure human DP-IV in vitro, fluorescent substrate Ala-Pro-AFC, Ki from Dixon plots
Settings: read-out: Ki against DP-IV, pH 7.8, substrate Ala-Pro-AFC

Ki: 7.6 µM
Compound: N[C@@H]1CC=CC[C@H]1C(=O)N1CCCC1 (relative stereo)
